In article PMC8880132 (Molecules, 2022):

How the values were obtained:
plasma protein = details: cited from earlier work
[1] = Pharmacokinetic drug-drug interaction study in rats after oral administration; assay type: in vivo, SD (Sprague-Dawley) rats; details: rat plasma, TEL 4 mg/kg oral, with LEN (1.2 mg/kg)
Method: SPF (specific pathogen free)-grade male SD (Sprague-Dawley) rats (weight: 230 ± 10 g) were purchased from Beijing Weitong Lihua Experimental Animal Technology Co. Ltd. (Beijing, China). Before starting the experiment, the rats were given sufficient food and water and kept under suitable conditions for one week. Suitable conditions included suitable temperature (23–27 °C), suitable humidity (50 ± 10%), and 12-h light–12-h dark diurnal cycle. All animals were fasted for 12 h before the start of the experiment, but they were allowed to drink water freely. All the animal experimental protocols were conducted in accordance with the UK Animals (Scientific Procedures) Act 1986 and under the guideline approved by the Ethics Committee of Hebei General Hospital (Shijiazhuang, China; No. 2021131).
Twenty-four healthy rats were randomly and equally divided into four groups (six animals in each group). […] Approximately 0.3 mL of blood was collected from the orbital venous plexus in a heparinized centrifuge tube from each rat at 0.25, 0.5, 1, 2, 3, 4, 6, 8, 10, 12, 24, 48, 72, and 96 h after administration. […]
The main pharmacokinetic parameters are presented as mean ± standard deviation and statistically analyzed using SPSS 25.0 software package (SPSS Inc., Chicago, IL, USA). […]

Q: Which results are given for CCCc1nc2c(C)cc(-c3nc4ccccc4n3C)cc2n1Cc1ccc(-c2ccccc2C(=O)O)cc1 [TEL, Telmisartan]?
A: plasma protein binding ratio (plasma protein): ~99%; Vz [1]: 26.59 ± 19.50 L/kg
